Values quoted from earlier work in publication PMC8773819.

Experiments:
[1] = target: β-synuclein (Homo sapiens) (UniProt Q16143)
[2] = target: α-synuclein 125-140 (Homo sapiens) (UniProt P37840)

Row | Kd [1] | Kd [2] | Substance
1 | 100 µM | – | α-synuclein (from UniProt P37840)
2 | – | 500 µM | α-synuclein N-terminal region (from UniProt P37840)
